This is an account of results in US9024017B2, “Octahydro-cyclopentapyrrolyl antagonists of CCR2” (Janssen Pharmaceutica NV, priority 2012, dated 2015).

Amino acid sequences for entries named in this document (tags omitted). A change or cut given only in a name is not applied to a line headed by its entry.
UniProt P41597: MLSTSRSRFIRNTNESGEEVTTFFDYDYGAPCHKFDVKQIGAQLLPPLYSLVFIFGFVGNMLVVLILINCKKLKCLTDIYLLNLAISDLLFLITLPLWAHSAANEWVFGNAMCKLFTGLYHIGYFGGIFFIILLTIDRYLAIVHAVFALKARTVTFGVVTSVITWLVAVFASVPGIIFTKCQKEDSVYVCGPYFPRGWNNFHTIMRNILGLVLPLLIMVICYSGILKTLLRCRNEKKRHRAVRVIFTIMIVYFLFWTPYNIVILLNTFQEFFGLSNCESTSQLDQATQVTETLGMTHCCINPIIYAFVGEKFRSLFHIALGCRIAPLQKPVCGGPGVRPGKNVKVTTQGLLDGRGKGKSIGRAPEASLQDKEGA

The target in the test is T1, CCR2 (Homo sapiens, UniProt P41597).
T1 construct: host or cells: THP-1 (human monocytic cell line)
The test can be described thus: MCP-1 Receptor Binding Assay in THP-1 Cells. The settings on record: read-out: MCP1B_v3 IC50. Here is the method: Compounds of the invention were subjected to various representative biological tests. […] MCP-1 Receptor Binding Assay in THP-1 Cells Human monocytic cell line THP-1 cells were obtained from American Type Culture Collection (Manassas, Va., USA). The THP-1 cells were grown in RPMI-1640 (RPMI: Roswell Park Memorial Institute Medium-cell culture growth media) supplemented with 10% fetal bovine serum in a humidified 5% CO2 atmosphere at 37° C. The cell density was maintained between […].
THP-1 (cells were incubated with 0.5 nM ^125I labeled MCP-1 (Perkin-Elmer Life Sciences, Inc. Boston, Mass.) in the presence of varying concentrations of either unlabeled MCP-1 (R & D Systems, Minneapolis, Minn.) or test compound for 2 hours at 30° C. in a 96 well plate. Cells were then harvested onto a filter plate, dried, and 20 μL of Microscint 20 was added to each well. Plates were counted in a TopCount NXT, Microplate Scintillation & Luminescence Counter (Perkin-Elmer Life Sciences, Inc. Boston, Mass.). Blank values (buffer only) were subtracted from all values and drug treated values were compared to vehicle treated values. 1 μM cold MCP-1 was used for nonspecific binding.
Consider `COC1COCCC1N[C@@H]1C[C@H]2CNC[C@@]2(C(=O)N2CCc3ncc(C(F)(F)F)cc3C2)C1` (relative stereo) [Example 1, ((3aR,5R,6aR)-5-(((3S*,4S*)-3-Methoxytetrahydro-2H-pyran-4-yl)amino)octahydrocyclopenta[c]pyrrol-3a-yl)(3-(trifluoromethyl)-7,8-dihydro-1,6-naphthyridin-6(5H)-yl)methanone], for which the IC50 (as a rule, the midpoint of a concentration-inhibition curve) amounted to 780 nM. In the case of `COC1COCCC1N[C@@H]1C[C@H]2CN(C)C[C@@]2(C(=O)N2CCc3ncc(C(F)(F)F)cc3C2)C1` (relative stereo) [Example 97, ((3aR,5R,6aR)-5-(((3S*,4S*)-3-Methoxytetrahydro-2H-pyran-4-yl)amino)-2-methyloctahydrocyclopenta[c]pyrrol-3a-yl)(3-(trifluoromethyl)-7,8-dihydro-1,6-naphthyridin-6(5H)-yl)methanone] it was 300 nM; in that of `COC1COCCC1N[C@@H]1C[C@H]2CN(C(=O)/C=C/c3ccccc3)C[C@@]2(C(=O)N2CCc3ncc(C(F)(F)F)cc3C2)C1` (relative stereo) [Example 65, (E)-1-((3aR,5R,6aR)-5-(((3S*,4S*)-3-Methoxytetrahydro-2H-pyran-4-yl)amino)-3a-(3-(trifluoromethyl)-5,6,7,8-tetrahydro-1,6-naphthyridine-6-carbonyl)hexahydrocyclopenta-[c]pyrrol-2(1H)-yl)-3-phenylprop-2-en-1-one], 30 nM.
